# scFv variants of Ab-91 (heavy chain) against a SARS-CoV-2 spike peptide

The target is the same throughout: PDVDLGDISGINAS, from the HR2 region of SARS-CoV-2 spike.

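In library AAYL51, one, two or three CDR residues were substituted; doubles and triples were drawn at random. The assay is AlphaSeq: two haploid yeast populations carry antibody and antigen on their surface. Binding brings cells together so that they mate, and sequencing counts the barcode pairs among the diploids. The ratio of observed to expected reads was calibrated, replicate by replicate, on BCL2-family standards whose Kd was known from biolayer interferometry. The assay was run in three technical replicates.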

Parent scFv Ab-91: VL joined to VH by the linker GGGGSGGGGSGGGGS. Changes lie in the heavy chain CDRs alone.
VL: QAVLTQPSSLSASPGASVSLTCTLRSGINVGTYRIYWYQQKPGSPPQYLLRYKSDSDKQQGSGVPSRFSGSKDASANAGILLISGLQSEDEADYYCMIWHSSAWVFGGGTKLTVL
VH: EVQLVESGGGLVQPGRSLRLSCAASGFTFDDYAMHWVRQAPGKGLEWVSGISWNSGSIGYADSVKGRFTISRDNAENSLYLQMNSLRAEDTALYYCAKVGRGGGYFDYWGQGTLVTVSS

Substitutions are numbered in sequence along the VH above, starting at 1 (not Kabat).
Every variant below is changed at Y108 of the VH (sequential numbering).
The Kd shown is the geometric mean over detected replicates; a lower Kd is a better binder.
An entry "nd" has no value in the source: the pair was not observed among the diploids in any replicate. This suggests poor binding but is not conclusive.
In this assay the parent's reference entry averaged 72 nM; its copy inside this library read 7.5 nM.
As a blank, each scFv also met three strains without target: over library AAYL51, 21% of these pairings were detected, typically at 34 µM and seldom below 1.8 µM.

For F27Q/D30S/Y108K, the assay gave nd (0 of 3 replicates).
For G50P/K65G/Y108F, the assay gave 130 µM (3 of 3 replicates).
For D31Y/N54F/Y108A, the assay gave 16 µM (2 of 3 replicates).
For G59T/S63F/Y108N, the assay gave 110 µM (1 of 3 replicates).
For G59K/Y108C, the assay gave 1.3 µM (2 of 3 replicates).
For I58N/Y108C, the assay gave nd (0 of 3 replicates).
For D62I/G104K/Y108F, the assay gave nd (0 of 3 replicates).
For W53R/K65F/Y108Q, the assay gave 34 nM (3 of 3 replicates).
For N54S/G56K/Y108S, the assay gave 170 nM (3 of 3 replicates).
For G50I/I58S/Y108H, the assay gave nd (0 of 3 replicates).
For S63K/R101C/Y108D, the assay gave 21 µM (2 of 3 replicates).
For G59C/Y108Q, the assay gave 88 µM (3 of 3 replicates).
For I51Q/D107M/Y108V, the assay gave nd (0 of 3 replicates).
For D31A/V99P/Y108T, the assay gave nd (0 of 3 replicates).
For T28M/Y108E, the assay gave nd (0 of 3 replicates).
For F27S/R101A/Y108P, the assay gave 1.4 µM (1 of 3 replicates).
For G26T/D107R/Y108H, the assay gave nd (0 of 3 replicates).
For T28N/S55C/Y108N, the assay gave 430 nM (3 of 3 replicates).
For G59Y/Y108V, the assay gave 33 µM (2 of 3 replicates).
For G59Q/G103Q/Y108M, the assay gave nd (0 of 3 replicates).
For Y108H, the assay gave 12 nM (3 of 3 replicates).
For D62Q/Y108F, the assay gave 4.6 µM (2 of 3 replicates).
For D30G/D62H/Y108T, the assay gave 8.4 nM (3 of 3 replicates).
For Y32P/D107W/Y108T, the assay gave 24 µM (1 of 3 replicates).
For G103A/D107V/Y108Q, the assay gave 77 µM (1 of 3 replicates).
For A61I/Y105N/Y108P, the assay gave 1.8 µM (2 of 3 replicates).
For S57P/Y108P, the assay gave nd (0 of 3 replicates).
For D30A/A61S/Y108E, the assay gave 3.7 nM (3 of 3 replicates).
For G50T/I51W/Y108G, the assay gave 46 µM (3 of 3 replicates).
For D62F/G103Y/Y108A, the assay gave nd (0 of 3 replicates).
For F27A/Y105Q/Y108L, the assay gave nd (0 of 3 replicates).
For G56T/V64R/Y108V, the assay gave nd (0 of 3 replicates).

Extract of 5 entries:

changes,apparent Kd,replicates with signal
G56T/V64R/Y108V,nd,0 of 3
I51Q/D107M/Y108V,nd,0 of 3
G50P/K65G/Y108F,130 µM,3 of 3
W53R/K65F/Y108Q,34 nM,3 of 3
G103A/D107V/Y108Q,77 µM,1 of 3

From the AlphaSeq antibody data of Engelhart et al. 2022 (doi:10.1038/s41597-022-01779-4), copy in the FLAb collection.